# The entries are a selection whose mix differs from that of the whole data set. Some structures show a salt or complex split into parts, the way the source records it. Calls of active or inactive are those of the source.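 The calls were made as follows: active = activation above 40% with more than 50 cells counted in the well; inconclusive = wells holding fewer than 50 cells, flagged as toxic or sparse; inactive = the rest.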
# By UniProt entry, the sequences of proteins in these tests, tags left out.
# UniProt Q9Y2T6, whole entry: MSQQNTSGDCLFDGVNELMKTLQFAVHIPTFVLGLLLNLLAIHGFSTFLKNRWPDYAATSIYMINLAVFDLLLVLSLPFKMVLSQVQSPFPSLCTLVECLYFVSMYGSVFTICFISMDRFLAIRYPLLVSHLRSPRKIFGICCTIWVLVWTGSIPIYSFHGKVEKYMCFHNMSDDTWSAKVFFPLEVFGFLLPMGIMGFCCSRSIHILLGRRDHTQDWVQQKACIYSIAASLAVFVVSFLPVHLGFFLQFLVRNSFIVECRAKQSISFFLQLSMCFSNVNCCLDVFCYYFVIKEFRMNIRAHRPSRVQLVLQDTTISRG
# Target: G-protein coupled receptor 55 (Homo sapiens) (UniProt Q9Y2T6)
# Test: GPR55 agonists via beta-arrestin recruitment, primary screen, imaging, U2OS cells, beta-arrestin-GFP redistribution (AID 1961);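 as to activation: U2OS osteosarcoma cells stably expressing GPR55 and beta-arrestin-GFP; plate controls were DMSO negative control for no effect and LPI positive control for full effect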
# Settings: at 10 µM; active compounds read high
row,Structure (SMILES),activation
1,O=[As](O)(c1ccccc1)c1ccc(O)cc1,inactive
2,O=[N+]([O-])c1ccc(O)c(/C=N/Nc2ccc([N+](=O)[O-])cc2[N+](=O)[O-])c1,inactive
3,O=[N+]([O-])c1ncn(CCn2cnc([N+](=O)[O-])n2)n1,inactive
4,O=[N+]([O-])c1ccc(OP2(=O)COCCO2)cc1 (centres undefined),inactive: 0.2%
5,O=C(OC1CN2CCC1CC2)c1cccc(Cl)c1 (centres undefined),inactive
6,CP(=O)(Nc1ccc(SC(F)(F)F)cc1)Oc1ccc(F)cc1 (centres undefined),inactive: -0.3%
7,CCOP(C)(=S)SCC(=O)NC(C)(CC)C(=O)O (centres undefined),inactive: -0.4%
8,CP(=O)(Nc1ccc2c(c1)OCCO2)Oc1ccccc1 (centres undefined),inactive: -0.2%
9,Cc1ccccc1NP(C)(=O)Nc1ccccc1C,inactive: -0.1%
10,CC(C)c1ccc(OP(C)(=O)Nc2ccc(SC(F)(F)F)cc2)cc1 (centres undefined),inactive: 1.3%
11,CP(=O)(Nc1ccccc1F)Oc1ccccc1 (centres undefined),inactive: 0.6%
12,O=C(OCCN1CCN(CCOCc2ccccc2)CC1)C(O)(c1ccccc1)c1ccccc1,inactive: 1.1%
13,O=C(OC1CN2CCC1CC2)c1ccc([N+](=O)[O-])cc1 (centres undefined),inactive: -0.1%
14,CC(=O)c1ccc(N2CC2c2ccncc2)cc1 (centres undefined),inactive
15,COc1ccc2c(c1O)-c1c(O)c(OC)cc3c1[C@H](C2)[N+](C)(C)CC3.O=[N+]([O-])c1cc([N+](=O)[O-])c([O-])c([N+](=O)[O-])c1[O-],inactive: 0.7%
16,CCOC(=O)NC(Sc1ccccc1)C(Cl)(Cl)Cl (centres undefined),inactive
17,CCNC(=S)/N=C(\N)N[N+](=O)[O-],inactive
18,COc1ccc(OP(C)(=O)Nc2ccc(SC(F)(F)F)cc2)cc1 (centres undefined),inactive: 0%
19,CCOC(=O)c1ccc(NP(C)(=O)Oc2ccc(F)cc2)cc1 (centres undefined),inactive: -0.2%
20,CCN(CC)CCCOC(=O)C(O)(c1ccccc1)C1CCCCC1 (centres undefined),inactive: -0.2%
21,O=C(OC1CN2CCC1CC2)c1ccccc1 (centres undefined),inactive
22,CCCCCOc1ccc(NP(C)(=O)Oc2ccc(Cl)cc2Cl)cc1 (centres undefined),inactive: -0.3%
23,O=[N+]([O-])c1cc([N+](=O)[O-])c(OC2CCCCC2O)c([N+](=O)[O-])c1 (centres undefined),inactive: -0.2%
24,CP(=O)(Nc1ccccc1)Oc1ccc(F)cc1 (centres undefined),inactive: -0.2%

# Reference: PubChem BioAssay AID1961 (Sanford-Burnham Center for Chemical Genomics, 2009)
